By UniProt entry, the sequences of proteins in these tests, tags left out. Residues count along the entry.
UniProt P05556, 21-798 limits assumed: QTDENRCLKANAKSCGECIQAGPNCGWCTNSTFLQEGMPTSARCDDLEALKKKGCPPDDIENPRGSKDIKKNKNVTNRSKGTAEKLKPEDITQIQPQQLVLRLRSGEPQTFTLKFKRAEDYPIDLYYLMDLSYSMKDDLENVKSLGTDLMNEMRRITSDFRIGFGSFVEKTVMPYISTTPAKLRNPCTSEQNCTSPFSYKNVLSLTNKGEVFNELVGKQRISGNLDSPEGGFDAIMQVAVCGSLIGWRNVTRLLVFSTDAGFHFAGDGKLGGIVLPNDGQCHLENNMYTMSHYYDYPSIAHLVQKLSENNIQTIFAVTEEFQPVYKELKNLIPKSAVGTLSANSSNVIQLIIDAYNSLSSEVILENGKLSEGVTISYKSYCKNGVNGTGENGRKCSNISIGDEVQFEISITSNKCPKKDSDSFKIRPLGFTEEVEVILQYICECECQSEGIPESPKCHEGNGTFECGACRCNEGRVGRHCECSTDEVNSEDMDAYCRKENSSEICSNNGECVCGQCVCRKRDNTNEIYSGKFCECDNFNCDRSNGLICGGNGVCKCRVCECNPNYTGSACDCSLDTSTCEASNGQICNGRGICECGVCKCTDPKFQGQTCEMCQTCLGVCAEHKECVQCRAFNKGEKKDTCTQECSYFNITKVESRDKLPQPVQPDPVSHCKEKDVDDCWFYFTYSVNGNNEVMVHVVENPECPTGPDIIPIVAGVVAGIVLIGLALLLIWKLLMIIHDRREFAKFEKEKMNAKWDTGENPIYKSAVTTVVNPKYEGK
UniProt P13612, 34-1032 limits assumed: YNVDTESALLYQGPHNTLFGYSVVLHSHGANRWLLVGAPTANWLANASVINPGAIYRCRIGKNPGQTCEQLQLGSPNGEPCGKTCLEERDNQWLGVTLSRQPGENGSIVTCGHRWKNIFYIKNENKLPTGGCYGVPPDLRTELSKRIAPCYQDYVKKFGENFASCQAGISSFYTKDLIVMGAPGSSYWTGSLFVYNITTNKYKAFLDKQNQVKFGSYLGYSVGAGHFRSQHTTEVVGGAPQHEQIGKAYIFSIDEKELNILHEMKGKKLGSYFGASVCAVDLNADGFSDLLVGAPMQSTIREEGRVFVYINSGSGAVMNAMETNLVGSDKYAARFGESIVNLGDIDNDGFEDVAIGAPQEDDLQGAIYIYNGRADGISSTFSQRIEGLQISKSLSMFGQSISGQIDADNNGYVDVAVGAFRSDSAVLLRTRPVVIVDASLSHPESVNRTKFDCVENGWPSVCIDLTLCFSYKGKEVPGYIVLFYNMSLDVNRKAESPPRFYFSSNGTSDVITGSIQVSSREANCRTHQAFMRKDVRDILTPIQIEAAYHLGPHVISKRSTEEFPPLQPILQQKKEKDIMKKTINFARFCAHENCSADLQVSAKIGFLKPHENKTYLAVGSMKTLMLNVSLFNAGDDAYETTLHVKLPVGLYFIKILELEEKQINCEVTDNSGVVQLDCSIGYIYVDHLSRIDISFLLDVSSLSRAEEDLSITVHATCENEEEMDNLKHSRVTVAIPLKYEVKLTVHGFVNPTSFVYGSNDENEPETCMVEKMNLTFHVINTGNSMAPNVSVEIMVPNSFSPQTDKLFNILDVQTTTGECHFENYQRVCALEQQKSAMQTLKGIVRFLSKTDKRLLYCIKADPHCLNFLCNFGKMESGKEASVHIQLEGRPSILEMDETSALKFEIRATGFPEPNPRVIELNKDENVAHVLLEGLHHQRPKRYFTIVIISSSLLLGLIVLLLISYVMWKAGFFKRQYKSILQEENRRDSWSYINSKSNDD
UniProt P26010, 20-798 limits assumed: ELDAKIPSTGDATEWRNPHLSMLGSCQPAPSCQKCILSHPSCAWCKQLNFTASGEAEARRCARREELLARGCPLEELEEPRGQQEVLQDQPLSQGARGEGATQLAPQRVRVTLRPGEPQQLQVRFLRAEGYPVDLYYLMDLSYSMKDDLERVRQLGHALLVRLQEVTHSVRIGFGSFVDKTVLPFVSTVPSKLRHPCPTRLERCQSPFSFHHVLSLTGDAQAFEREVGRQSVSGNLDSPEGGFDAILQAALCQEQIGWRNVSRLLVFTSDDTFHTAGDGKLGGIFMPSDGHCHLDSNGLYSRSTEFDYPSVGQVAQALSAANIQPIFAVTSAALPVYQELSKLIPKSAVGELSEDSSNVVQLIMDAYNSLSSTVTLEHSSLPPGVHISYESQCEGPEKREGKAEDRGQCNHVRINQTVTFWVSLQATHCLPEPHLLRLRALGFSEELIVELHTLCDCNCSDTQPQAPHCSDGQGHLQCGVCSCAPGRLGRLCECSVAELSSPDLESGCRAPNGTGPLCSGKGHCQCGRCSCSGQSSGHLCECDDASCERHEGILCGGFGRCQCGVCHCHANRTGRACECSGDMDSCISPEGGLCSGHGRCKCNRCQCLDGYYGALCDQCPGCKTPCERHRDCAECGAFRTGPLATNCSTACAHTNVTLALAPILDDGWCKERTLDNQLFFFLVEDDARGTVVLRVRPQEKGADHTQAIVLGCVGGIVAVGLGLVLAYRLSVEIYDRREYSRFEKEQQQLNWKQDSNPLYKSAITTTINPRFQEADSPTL

According to US20050209232A1, “Pyridazinone ureas as antagonists of alpha4 integrins” (priority 2004, published 2005):

Key:
[1] = biological target: α4β1 (Homo sapiens, UniProt P05556+P13612); assay: Ramos Cell Adhesion Assay (α4β1 Mediated Adhesion/VCAM-1); settings: read-out: α4β1 IC50; Ramos cells adhering to recombinant hVCAM-1
Experimental: Ramos Cell Adhesion Assay (α4β1 Mediated Adhesion/VCAM-1)
Immulon 96 well plates (Dynex) were coated with 100 μL recombinant hVCAM-1 at 4.0 μg/mL in 0.05 M NaCO3 buffer pH 9.0 overnight at 4° C. (R&D Systems). Plates were washed 2 times in PBS with 1% BSA and blocked for 1 h@room temperature in this buffer. PBS was removed and compounds to be tested (50 μL) were added at 2× concentration. Ramos cells, (50 μL at 2×10^6/mL) labeled with 5 μM Calcein AM (Molecular Probes) for 1 h at 37° C., were added to each well and allowed to adhere for 1 h at room temperature. Plates were washed 4 × in PBS+1% BSA and cells were lysed for 15 minutes in 100 μL of 1 M Tris pH 8.0 with 1% SDS. The plate was read at 485 nm excitation and 530 nm emission.

[2] = biological target: human α4β7 integrin (Homo sapiens, UniProt P13612+P26010); assay: α4β7-K562 Cell Adhesion Assay (α4β7 Mediated Adhesion/MAdCAM-1); settings: read-out: α4β7 IC50; K562 cells expressing human α4β7 adhering to FLAG-hMAdCAM-1, 1 mM Mn2+
Experimental: α4β7-K562 Cell Adhesion Assay (α4β7 Mediated Adhesion/MAdCAM-1)
M2 anti-FLAG Antibody Coated 96-well plates (Sigma) were coated for 1 hour at 4° C. with 2-8 μL/well recombinant FLAG-hMAdCAM-1 contained in 100 μL of Dulbecco's PBS, pH 7.4, with 1% BSA and 1 mM Mn^2+ (PBS-BSA-Mn). Plates were washed once with PBS-BSA-Mn. Buffer was removed and compounds to be tested (50 μL) were added at 2× concentration. Stably transfected K562 cells expressing human α4β7 integrin, (50 μL at 2×10^6/mL) that had been labeled with 100 μg/mL carboxymethyl fluorescein diacetate succinimidyl ester (CFDA-SE; Molecular Probes) for 15 min at 37° C. were added to each well and allowed to adhere for 1 h at room temperature. Plates were washed 4× in PBS-BSA-Mn and then cells were lysed for 2 min by addtion of 100 μL of PBS without Ca^2+, Mg^2+ supplemented with 0.1 M NaOH. The plate was read on a 96-well fluorescent plate reader at 485 nm excitation and 530 nm emission.

Row | IC50 [1] [nM] | IC50 [2] [nM] | SMILES
1 | > 5000 | 238 | COc1cnn(C)c(=O)c1-c1ccc(C[C@H](NC(=O)N(c2ccc(NC(C)C)cc2)C(C)C)C(=O)O)cc1
2 | > 5000 | 446 | CCN(C(=O)N[C@@H](Cc1ccc(-c2c(OC)cnn(C)c2=O)cc1)C(=O)O)c1cccc2ccccc12
3 | > 5000 | 382 | COc1cnn(C)c(=O)c1-c1ccc(C[C@H](NC(=O)NN2CCN(CCO)CC2)C(=O)O)cc1
